# Values of other authors as cited in patent US20240315956A1, “METHOD OF PRODUCTION OF THE COMPOSITION OF CYCLOOXYGENASE-2 (COX-2) INHIBITORS” (US NANO FOOD & DRUG INC, priority 2021, published 2024).
compound,measurement,value
Cc1ccc(-c2cc(C(F)(F)F)nn2-c2ccc(S(N)(=O)=O)cc2)cc1 [Celecoxib],log P,3.0
